Molecules are shown by their SMILES. The list shows a part of the results, in another mix than the full data. The source made the active and inactive calls.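 The calls were made as follows: active = growth inhibition above about 58% in most replicates (limit read from the data, passing the limit was not always enough); inconclusive = exactly half the replicates above a set limit; inactive = most replicates below a set limit.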

Our source for the growth inhibition values is PubChem BioAssay AID1979 (Broad Institute, 2009).

The assay is described as follows: Candida growth reduction under fluconazole – CaCi-2 strain, Alamar Blue fluorescence, primary screen (AID 1979).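 Also: all wells also contain fluconazole at 8 µg/ml as a sub-toxic cotreatment; 0% = median of DMSO wells and 100% = median of geldanamycin control wells.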 As to conditions: C. albicans CaCi-2 (fluconazole-resistant clinical isolate) + fluconazole, 48 h, active compounds read high, concentration not given here. For orientation: Resazurin is reduced to fluorescent resorufin, in cell work by metabolically active cells.
On to `Cc1cccc(C)c1OP(C)(=O)Nc1ccc(SC(F)(F)F)cc1` (centres undefined), for which the growth inhibition is inactive: -3.03%.
As for `CP(=O)(Nc1ccc(SC(F)(F)F)cc1)Oc1ccc(Cl)cc1` (centres undefined), the growth inhibition was inactive: -7.85%.
The result for `COP1(=S)c2c(C)nn(CCC#N)c2N=C(c2ccc(F)cc2)N1C` (centres undefined) reads inactive: 2.18%; that for `CP(=O)(Oc1ccccc1)OC(c1ccccc1)C(F)(F)F` (centres undefined), inactive: -21.2%; that for `CCc1ccc(OP(C)(=O)N2CCN(c3ccc([N+](=O)[O-])cc3)CC2)cc1` (centres undefined), inactive: -7.66%.
To `O=C(COc1ccccc1)OC1CN2CCC1CC2` (centres undefined) belongs inactive: 20.4%; to `CP(=O)(NC(=O)Nc1ccccc1)Oc1ccccc1` (centres undefined), inactive: 3.38%.
The result for `O=C(Nc1ccncc1[N+](=O)[O-])c1ccc([N+](=O)[O-])cc1[N+](=O)[O-]` reads inactive: 20.6%; that for `Cc1cc(C)cc(OP(C)(=O)Nc2ccc(SC(F)(F)F)cc2)c1` (centres undefined), inactive: 2.91%; that for `CCOC(=O)c1ccc(NC(=O)C(C)(CCl)SC)cc1` (centres undefined), inactive: -1.15%.
On to `CCOC(=O)c1ccc(NP(C)(=O)Oc2ccc(OC)cc2)cc1` (centres undefined), for which the growth inhibition is inactive: 10.7%.
For `O=[N+]([O-])c1cc([N+](=O)[O-])c(O)c([N+](=O)[O-])c1.c1ccc(Oc2ccncc2)cc1`, the growth inhibition was inactive: -0.0349%.
The result for `CCOP(C)(=S)SCC(=O)NC(C)C(=O)O` (centres undefined) reads inactive: -7.34%; that for `O=C(OC1CN2CCC1CC2)c1cccc([N+](=O)[O-])c1` (centres undefined), inactive: 6.86%; that for `CP(=O)(Nc1ccccn1)Oc1ccc(Cl)cc1` (centres undefined), inactive: -7.48%.
To `O=C(OC1CN2CCC1CC2)C12CC3CC(CC(C3)C1)C2` (centres undefined) belongs inactive: -13.3%.
The result for `CCN(CC)CCCOC(=O)C(O)(c1ccccc1)c1ccccc1` reads inactive: -5.2%; that for `Cc1cc(=O)[nH]c(N[N+](=O)[O-])n1`, inactive: -1.67%; that for `Cc1c2c(nc3ccccc13)SC(C(Cl)Cl)C2` (centres undefined), inactive: -30.5%.
For `COc1cc(I)ccc1[As](=O)(O)O`, the growth inhibition was inactive: 3.39%.
Consider `COc1ccc(N/C(=N/P(=O)(N2CCOCC2)N2CCOCC2)N2CCOCC2)cc1`, for which the growth inhibition was inactive: 0.773%.
To `C[As](=O)(O)c1cccc(C(=O)O)c1` belongs inactive: -5.31%.
The result for `O=[As](O)(c1ccc(O)cc1)c1ccccc1O` reads inactive: -27%; that for `O=[N+]([O-])c1cc([N+](=O)[O-])c(Nc2cccnc2)c([N+](=O)[O-])c1`, inactive: -0.948%.
To `Cc1ccc2nc3c(c(C)c2c1)CC(C(Cl)Cl)S3` (centres undefined) belongs inactive: -15.8%; to `O=[N+]([O-])c1ccc2c(c1)C=Nc1ccccc1O2`, inactive: -26.8%.
Regarding `CC(C)(C)c1ccc(OP(C)(=O)Nc2ccc(SC(F)(F)F)cc2)cc1` (centres undefined), the growth inhibition is inactive: 7.35%.
To `Cc1ccc(OP(=O)(Nc2ccc([N+](=O)[O-])cn2)Oc2ccc(C)cc2)cc1` belongs inactive: 3.12%; to `Cc1cccc(C)c1OP(C)(N)=O` (centres undefined), inactive: 1.74%.
Consider `COc1ccccc1OP(C)(=O)Nc1ccc(C)cc1` (centres undefined), for which the growth inhibition is inactive: 3.26%.
The result for `CC(C)c1ccc(OP(=O)(Nc2ccccn2)Oc2ccccc2F)cc1` (centres undefined) reads inactive: -42.9%.
To `Cc1ccc(NP(C)(=O)Oc2ccccc2)c(C)c1` (centres undefined) belongs inactive: 0.707%.
The result for `CCOC(=O)c1ccc(NP(C)(=O)Oc2ccccc2)cc1` (centres undefined) reads inactive: -7.68%; that for `ClCCSc1nnc(-c2cccnc2)o1`, inactive: 2.55%; that for `Cc1cc(C)cc(OP(C)(N)=O)c1` (centres undefined), inactive: -5.58%.
As to `CCN(CC)C(=S)SC(NC=O)C(Cl)(Cl)Cl` (centres undefined), the growth inhibition is inactive: -0.921%.
`COc1ccccc1OP(C)(=O)Nc1cc(Cl)ccc1C` (centres undefined): the growth inhibition was inactive: -8.41%.
The result for `CC(C)NC(=O)NP(=O)(Oc1ccccc1)Oc1ccccc1` reads inactive: -15.4%; that for `O=[N+]([O-])c1cc([N+](=O)[O-])c(-c2ccn[nH]2)s1`, inactive: 39.5%; that for `COc1ccc(OP(C)(=O)Nc2cccc(F)c2)cc1` (centres undefined), inactive: 0.595%.
To `CS(=O)(=O)c1cc([N+](=O)[O-])c2no[n+]([O-])c2c1` belongs inactive: 6.4%.
To `CCOP1(=S)c2c(C)nn(CCC#N)c2N=C(c2ccccc2F)N1C` (centres undefined) belongs inactive: -0.376%; to `O=C(O)c1cccc(Nc2c([N+](=O)[O-])cc([N+](=O)[O-])cc2[N+](=O)[O-])c1`, inactive: -1.47%; to `O=P(Nc1nccs1)(c1ccccc1)c1nc2ccccc2s1` (centres undefined), inactive: -4.34%.
Turning to `O=P(Nc1nccs1)(Oc1ccccc1)Oc1ccccc1`, the growth inhibition is inactive: 9.94%.
To `Nc1ccccc1[As](=O)(O)c1ccccc1` belongs inactive: 12.2%; to `O=C(O)COc1ccc([As](=O)(O)O)cc1[N+](=O)[O-]`, inactive: 4.27%; to `NC(=O)Nc1ccc([As](=O)(O)O)cc1`, inactive: -12%.
To `CN(C)C(=O)c1cc([N+](=O)[O-])cc2c1-c1c(cc([N+](=O)[O-])cc1[N+](=O)[O-])C2=O` belongs inactive: 21.8%; to `O=[N+]([O-])c1ccc2c(c1)nnn2O`, inactive: 6.02%.
The result for `CC1=NCCc2c1[nH]c1ccccc21.O=[N+]([O-])c1cc([N+](=O)[O-])c(O)c([N+](=O)[O-])c1` reads inactive: 14.4%; that for `N#CCCN(C(=O)COC(=O)C(O)(c1ccccc1)c1ccccc1)c1ccc(F)cc1`, inactive: 8.26%; that for `CCOP1(=S)c2c(C)nn(CCC#N)c2N=C(c2ccc(F)cc2)N1C` (centres undefined), inactive: -1.95%.
With `CN(C(=O)Cc1ccccc1)[C@@H]1CC[C@]2(CCCO2)C[C@H]1N1CCCC1`, the growth inhibition is inactive: -14%.
To `COc1cc(C(=O)NCC2(N3CCOCC3)CCCCC2)cc(Cl)c1OC(C)C` belongs inactive: -0.886%.
In the case of `O=[As](O)(O)c1cccnc1`, the growth inhibition is inactive: -13.1%.
To `CS(=O)(=O)c1ccc(Cl)c(NC(=O)COC(=O)C(O)(c2ccccc2)c2ccccc2)c1` belongs inactive: -4.07%.
To `COc1ccccc1OP(C)(=O)Nc1cccc(Br)c1` (centres undefined) belongs inactive: -18%; to `O=C(OC1CN2CCC1CC2)c1ccc(Cl)cc1` (centres undefined), inactive: -4.88%; to `CCOC(=O)c1ccc(NP(C)(=O)Oc2cc(C)cc(C)c2)cc1` (centres undefined), inactive: -15%.
To `O=[As](O)(c1cccc(O)c1)c1cccc(O)c1` belongs inactive: 5.99%; to `Cc1cccc(OCC(=O)OC2CN3CCC2CC3)c1` (centres undefined), inactive: 7.53%.
`Cc1cc(C)cc(OP(C)(=O)Nc2ccc(C)cc2C)c1` (centres undefined): the growth inhibition is inactive: 2.57%.
Regarding `CCCOP(=S)(Nc1nc(N)cc(=O)[nH]1)OCCC`, the growth inhibition is inactive: 4.99%.
Consider `Cc1ccc(C)c(NP(C)(=O)Oc2ccccc2)c1` (centres undefined), for which the growth inhibition was inactive: -2.64%.
`CP(=O)(Nc1cccc(Br)c1)Oc1ccccc1` (centres undefined): the growth inhibition is inactive: -16.7%.
To `Cc1cc(C)cc(OP(C)(=O)Nc2ccccn2)c1` (centres undefined) belongs inactive: 33.2%; to `Nc1cccc2c([As](=O)(O)O)cccc12`, inactive: 2.25%; to `Cc1ccc(NCCc2c([N+](=O)[O-])cc([N+](=O)[O-])cc2[N+](=O)[O-])cc1`, inactive: 46.5%.
On to `CCOP(=O)(Nc1cccc2ccccc12)OCC`, for which the growth inhibition was inactive: 16.2%.
To `CN(CCCl)Cc1cc(Cl)c(NC2=NCCN2)c(Cl)c1` belongs inactive: -13.6%.
The result for `CCOP(=O)(Nc1ccc(C)cn1)OCC` reads inactive: -6.55%; that for `O=P1(Nc2ccccn2)COc2ccccc2OC1`, inactive: -2.57%; that for `CCC1=CC2Cc3nc4ccc(Cl)cc4c(N)c3C(C1)C2` (centres undefined), inactive: 5.75%.
To `CCOP(=O)(NC(=NC(C)c1ccccc1)NC(C)c1ccccc1)OCC` (centres undefined) belongs inactive: 7.2%.
As to `O=[N+]([O-])c1cc([N+](=O)[O-])c(-n2nnc3ccccc32)c([N+](=O)[O-])c1`, the growth inhibition was inactive: 20.7%.
The result for `Clc1n[nH]nc1-c1nn[nH][15n]1` reads inactive: 1.1%; that for `CC(C)(C)C(=O)NC(Sc1ncccn1)C(Cl)(Cl)Cl` (centres undefined), inactive: 3%; that for `COc1ccccc1CNC(=O)COC(=O)C(O)(c1ccccc1)c1ccccc1`, inactive: 2.25%.
With `O=[N+]([O-])c1cc([N+](=O)[O-])c(-c2cnn(-c3ccccc3)c2)c([N+](=O)[O-])c1`, the growth inhibition was inactive: -2.01%.
To `CC1(CBr)Cn2c(nc3ccccc3c2=O)S1` (centres undefined) belongs inactive: -6.14%; to `CC(C)/C=N\N=C(\N)N[N+](=O)[O-]`, inactive: -6.89%.
The result for `COc1cc(C2NCCC3(OCCO3)C2(C)C)cc(OC)c1OC.O=[N+]([O-])c1cc([N+](=O)[O-])c(O)c([N+](=O)[O-])c1` (centres undefined) reads inactive: 1.69%.
In the case of `Cc1nn(-c2ccccc2)c2c1P(=O)(N1CCOCC1)N(C)C(c1ccccc1)=N2` (centres undefined), the growth inhibition was inactive: 15.5%.
The result for `CC1CCC(C(C)C)C(OP(=O)(Nc2ccccn2)c2ccccc2)C1` (centres undefined) reads inactive: 15.5%; that for `Cc1ccc(C(=O)OC2CN3CCC2CC3)cc1` (centres undefined), inactive: -9.31%; that for `O=C(/C=C/c1ccccc1)OC1CN2CCC1CC2` (centres undefined), inactive: 0.0133%.
To `O=[N+]([O-])c1cc([N+](=O)[O-])c(Nc2nnnn2CCO)c([N+](=O)[O-])c1` belongs inactive: -4.6%; to `CN(C)C1(CNC(=O)c2ccc(S(C)(=O)=O)cc2)CCCCC1`, inactive: 8.62%; to `CCOC(=O)C(CC)C1=NC(C)(C)Cc2ccccc21.O=[N+]([O-])c1cc([N+](=O)[O-])c(O)c([N+](=O)[O-])c1` (centres undefined), inactive: -3.56%.
The result for `O=P1(Nc2ncccn2)COc2ccccc2OC1` reads inactive: -9.13%.
With `COc1ccccc1OP(C)(=O)Nc1c(C)cccc1C` (centres undefined), the growth inhibition was inactive: -14.3%.
As to `CN1CCCCC1COC(=O)C1(O)c2ccccc2CCc2ccccc21` (centres undefined), the growth inhibition is inactive: -28.4%.
The result for `O=P1(Nc2ccc(Br)cn2)COc2ccccc2OC1` reads inactive: 13.1%.
To `O=[As](O)(c1cccs1)c1cccs1` belongs inactive: -1.31%; to `Cc1ccc(OCC(=O)OC2CN3CCC2CC3)cc1` (centres undefined), inactive: -5.22%.
`CP(=O)(Nc1ccc(SC(F)(F)F)cc1)Oc1ccccc1` (centres undefined): the growth inhibition was inactive: -7.71%.
With `Nc1cccc([As](=O)(O)c2ccccc2)c1`, the growth inhibition was inactive: -3.5%.
With `CCCOc1ccc(NP(C)(=O)Oc2ccc(Cl)cc2)cc1` (centres undefined), the growth inhibition is inactive: -2.73%.
